Measured values published in PubChem BioAssay (Tox21).
“And” between values parts separate entries of the source, which are not always exact repeats. Equal entries are not always repeated. Only a part is listed here, and it is no random draw. The source made the active and inactive calls. The call rests on the fitted dose curve.

Assay: qHTS assay to identify small molecule agonists of the estrogen related receptor (ERR) signaling pathway from Tox21 library (AID 1224849); further: nearly all actives have a fitted effect of over 15% in size
Settings: ERR reporter cell line, ONE-Glo luciferase, 18 h; at 92.4 µM (top of the series) unless noted
Excerpt: National Center for Advancing Translational Sciences [NCATS]
NIH Chemical Genomics Center [NCGC]
U.S. Environmental Protection Agency [EPA]
National Institutes of Environmental Health Sciences [NIEHS]
National Toxicology Program [NTP]
Estrogen related receptors (ERRs), the first orphan nuclear receptors discovered, play an important role in the control of cellular energy metabolism. ERRs are required for high-energy production in response to the environmental challenges. ERR-alpha was also identified as an adverse marker for breast cancer progression; ERR-alpha-positive tumors have a poor prognosis. To screen and to identify environmental compounds that perturb the ERR signaling pathways could provide valuable information for potential therapeutic or preventive measures in the treatment of metabolic disease. For identifying ERR agonists, ERR cell line (provided by NTP) has been used to screen Tox21 10K library.
The ERR cells were dispensed at 2,000 cells/5 ul/well in 1536-well white plates using a Multidrop dispenser. After the assay plates were incubated at a 37 C/5% CO2 incubator for 6 hours, 23 nL of compounds dissolved in DMSO, positive and negative controls or DMSO only was transferred to the assay plate by a pin tool. The plates were incubated at 37 C for 18 hours. 4 ul/well of One-Glo reagent was added into the assay plates using a Flying Reagent Dispenser. After 30-minute incubation at room temperature, the luminescence intensity in the plates was measured using a ViewLux plate reader.
On the % scale 0 is the no-effect control and ±100 the full control effect.

| SMILES | activity change, positive = activation |
| --- | --- |
| Cc1cc([N+](=O)[O-])cc([N+](=O)[O-])c1O | inactive: -57.8% and inactive: -62.2% |
| O=C(Cl)OCCOC(=O)Cl | inactive: 1.86% |
| CCOP(=S)(CC)Sc1ccccc1 (stereo unspecified) | inactive: -3.01% |
| CC(C)CCCCCCCOP(OCCCCCCCC(C)C)Oc1ccccc1 | inactive: -20.1% |
| N#CSc1ccc([N+](=O)[O-])cc1[N+](=O)[O-] | inactive: -78.8% |
| O=[p+]1oc2ccccc2c2ccccc21 (stereo unspecified) | inactive: -1.85% |
| CCCCO[P+](=O)OCCCC | inactive: 2.62% and inactive: 1.7% |
| CN(N=O)C(=N)N[N+](=O)[O-] | inactive: 1.32% |
| CCNC(C)Cc1ccc2c(c1)OCO2 (stereo unspecified) | inactive: 12.7% |
| O=C(Cl)Oc1ccccc1 | inactive: -5.16% |
| Cc1cc([N+](=O)[O-])c(O)c([N+](=O)[O-])c1 | inactive: -28.5% |
| O=P(Cl)(Cl)c1ccccc1 | inactive: 1.75% |
| CC(C)OP(=S)(OC(C)C)SCCNS(=O)(=O)c1ccccc1 | inactive: -51.4% |
| CCC(C)(OOC(C)(C)C)OOC(C)(C)C | inactive: 9.76% [at 19 µM] |
| O=C1C2CC=CCC2C(=O)N1SC(Cl)(Cl)C(Cl)Cl (stereo unspecified) | inactive: -43% and inactive: -79.7% |
| O=[As]c1ccccc1 (stereo unspecified) | inactive: -81.5% |
